The values below come from patent publication US20240092770A1, “Heterocycle RMB39 Modulators” (Recursion Pharmaceuticals, Inc., priority 2022, published 2024).

Amino acid sequences for entries named in this document (tags omitted). Residues count along the entry.
UniProt Q14498, 2-530 limits assumed: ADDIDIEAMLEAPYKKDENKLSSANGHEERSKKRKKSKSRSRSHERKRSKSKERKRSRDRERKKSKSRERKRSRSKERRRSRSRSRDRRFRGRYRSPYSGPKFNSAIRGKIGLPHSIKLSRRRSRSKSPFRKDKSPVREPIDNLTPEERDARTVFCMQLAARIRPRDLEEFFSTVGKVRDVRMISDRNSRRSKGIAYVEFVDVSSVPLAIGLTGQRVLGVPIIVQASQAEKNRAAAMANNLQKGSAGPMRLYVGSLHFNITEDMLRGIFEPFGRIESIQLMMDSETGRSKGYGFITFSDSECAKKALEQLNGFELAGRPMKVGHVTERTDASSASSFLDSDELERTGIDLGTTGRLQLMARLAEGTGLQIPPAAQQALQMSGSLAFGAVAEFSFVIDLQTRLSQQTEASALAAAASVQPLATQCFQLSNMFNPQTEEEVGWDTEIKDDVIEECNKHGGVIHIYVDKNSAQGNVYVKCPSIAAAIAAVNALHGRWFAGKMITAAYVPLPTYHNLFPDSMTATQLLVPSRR
UniProt Q66K64, whole entry: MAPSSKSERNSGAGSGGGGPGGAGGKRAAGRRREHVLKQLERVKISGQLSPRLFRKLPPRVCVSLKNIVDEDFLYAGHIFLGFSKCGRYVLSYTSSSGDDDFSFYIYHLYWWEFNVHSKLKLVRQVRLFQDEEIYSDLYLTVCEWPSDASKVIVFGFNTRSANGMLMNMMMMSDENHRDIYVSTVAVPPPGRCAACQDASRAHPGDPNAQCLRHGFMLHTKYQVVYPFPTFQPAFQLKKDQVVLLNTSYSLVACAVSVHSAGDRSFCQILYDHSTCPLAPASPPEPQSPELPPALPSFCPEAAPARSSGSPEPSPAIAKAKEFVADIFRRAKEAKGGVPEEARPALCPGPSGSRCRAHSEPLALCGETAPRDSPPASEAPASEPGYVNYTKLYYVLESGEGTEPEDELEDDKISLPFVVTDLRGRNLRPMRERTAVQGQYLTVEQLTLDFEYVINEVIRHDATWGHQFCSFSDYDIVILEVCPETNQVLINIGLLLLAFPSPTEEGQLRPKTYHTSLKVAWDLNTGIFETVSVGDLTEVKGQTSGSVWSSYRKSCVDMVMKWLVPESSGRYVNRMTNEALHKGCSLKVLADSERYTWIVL

The test addresses RBM39 and the DCAF15 complex (RBM39-Flag / His-DCAF15-DDA1-DDB1) (Homo sapiens (Human), UniProt Q14498+Q66K64). The test is described as follows: DCAF15 RBM39 complex formation TR-FRET assay. Particulars: RBM39(R150-D331) 3xFlag 50 nM, His-DCAF15-DDA1-DDB1 10 nM, 60 min room temperature. Here is the method:
A TR-FRET assay was used to assess the effect of compounds disclosed herein on the interaction between RBM39 and the DCAF15 complex. Test compounds were dissolved to form a 10 mM DMSO stock solution. A 45 μL aliquot of the stock solution was transferred to a 384 pp-plate, and a threefold, 8-point dilution was performed via transferring 15 μL compound solution into 30 μL of DMSO. The plates were then spun at room temperature at 1,000 RPM for 1 minute.
A 30 nL aliquot of the diluted compound was transferred to a 384 well plate, which was incubated at room temperature for 15 minutes. Next, Solutions 1, 2, and 3 were prepared as described in the below tables. A 5 μL aliquot of Solution 2 was added to each well, followed by 5 μL of Solution 3 to start the reaction. The final volume of each well was 10 μL. The plates were incubated at room temperature for 60 minutes, and then read.
Next, an RBM39 (R150-D331) 3× Flag used in TR-FRET assay was prepared:
Recombinant RBM39 protein is composed of the R1R2 of RBM39 (aa 150 to 331; UniProt: Q14498). The coding sequence was sub-cloned into pGEX4T-1-RBM39-flag vector, expressed as a GST-fusion protein with N-terminal TEV protease cleavage site. A 3× Flag tag was added to the C-terminal of R1R2 used in a FRET assay.

As a reminder, the EC50 is the concentration giving half of the maximal effect. Lower therefore signals greater potency. Take `O=S(=O)(Nc1ccc(F)c2c(Cl)c[nH]c12)c1nccs1`: the concentration for a half-maximal effect (EC50) came to 1.62 µM. This lies in the single-digit micromolar range.
